Values quoted from earlier work in EP3357492B1, “MULTILAYER TABLET FOR ADMINISTRATION OF MAGNESIUM” (S.I.I.T. S.r.l.-Servizio Internazionale Imballaggi …, priority 2017, dated 2018).

Conditions: in water

Substance: Gluconate
- Solubility (g/100 g water): 19 g/100 g water
